Data reported in patent US8338465B2, “Cyclic carboxylic acid rhodanine derivatives for the treatment and prevention of tuberculosis” (priority 2006, dated 2012).

Test system: Mycobacterium bovis var. Bacille Calmette Guerin (BCG)
Assay type: cell-based
Conditions: mildly acidic pH; 0.5 mM NaNO2 (pH 5.5) or 0.05 mM NaNO2 (pH 4.5)

O=C(O)c1cccc(N2C(=O)C(=Cc3ccc(-c4ccccc4Cl)o3)SC2=S)c1 (single isomer, unassigned) [Mycopyrin 5, 3-[5[[5-(2-chlorophenyl)-2-furanyl]methylene]-4-oxo-2-thioxo-3-thiazolidinyl]benzoic acid]
killing of non-replicating BCG together with nitrite: in synergy with nitrite
